Laboratory results reported in article PMC7547831 (Acta Pharmaceutica Sinica. B, 2020).

Amino acid sequences for entries named in this document (tags omitted). Residues count along the entry.
UniProt Q9BYF1, 18-740: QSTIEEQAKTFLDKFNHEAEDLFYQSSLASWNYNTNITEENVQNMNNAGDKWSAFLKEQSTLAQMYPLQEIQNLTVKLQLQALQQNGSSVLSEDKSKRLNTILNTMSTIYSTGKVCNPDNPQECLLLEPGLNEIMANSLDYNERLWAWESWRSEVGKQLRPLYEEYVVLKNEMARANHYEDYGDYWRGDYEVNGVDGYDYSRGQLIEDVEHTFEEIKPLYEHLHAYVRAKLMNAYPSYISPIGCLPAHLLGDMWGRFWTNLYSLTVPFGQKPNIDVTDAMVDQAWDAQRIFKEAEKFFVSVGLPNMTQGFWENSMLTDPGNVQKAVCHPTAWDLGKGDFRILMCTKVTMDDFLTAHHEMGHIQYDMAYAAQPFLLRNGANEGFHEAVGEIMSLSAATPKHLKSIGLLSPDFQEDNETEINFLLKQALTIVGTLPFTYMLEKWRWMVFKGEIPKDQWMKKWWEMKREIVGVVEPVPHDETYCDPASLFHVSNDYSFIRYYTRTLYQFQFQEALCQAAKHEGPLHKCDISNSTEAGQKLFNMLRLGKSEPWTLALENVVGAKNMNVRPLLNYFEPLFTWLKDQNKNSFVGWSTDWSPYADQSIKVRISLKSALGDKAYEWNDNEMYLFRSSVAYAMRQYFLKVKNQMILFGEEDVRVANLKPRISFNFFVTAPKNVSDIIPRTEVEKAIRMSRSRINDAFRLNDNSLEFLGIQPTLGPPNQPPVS

What was measured:
ACE2 = ACE2 (Homo sapiens, UniProt Q9BYF1); assay: SPR analysis of affinity to ACE2 recombinant protein; type: binding; conditions: steady-state affinity model (1:1), 0.024 to 50 μmol/L
[1] = LHQW components in human plasma after repeated oral dosing; type: in vivo; conditions: after repeated oral administration of LHQW capsule, semi-quantitative

Row | Substance | Kd (ACE2) | Human in vivo exposure (in words) [1]
1 | Forsythoside B [Forsythoside B (125)] | 61 µM | 
2 | forsythin |  | higher human exposure
